Experimental findings from patent US4720543A, “1a-7-substituted derivatives of mitomycin and uses thereof” (priority 1985, dated 1988) are described below.

In this series the test system is E. coli WP2s (λ). As to the kind of experiment: lambda prophage induction in microsuspension assay (genotoxicity). The settings on record: 24 hours.

On to N-methyl-N-nitrosoguanidine, for which the “Induction of prophage, PFU/DISH” value was determined as 1813.5 PFU/DISH (0.03125 ug/ml), 416.0 PFU/DISH (0.125 ug/ml), 2366.0 PFU/DISH (50.000 ug/ml) and 473.5 PFU/DISH (200.000 ug/ml).
